Assay results reported in PubChem BioAssay (Tox21).
The source calls these results inconclusive, neither active nor inactive. Unless noted, the call rests on the fitted dose curve; in most records, active means well fitted curve in the direction sought with a large enough effect in the repeat runs; inconclusive means weak or mixed curves; inactive means no such curve, though single readings can be large; an effect the other way counts as inactive or inconclusive.

Sequences of proteins named here, by UniProt entry; tags and fusion partners are left off. A change or cut given only in a name is not applied to a line headed by its entry.
UniProt Q92731, whole entry, looked up: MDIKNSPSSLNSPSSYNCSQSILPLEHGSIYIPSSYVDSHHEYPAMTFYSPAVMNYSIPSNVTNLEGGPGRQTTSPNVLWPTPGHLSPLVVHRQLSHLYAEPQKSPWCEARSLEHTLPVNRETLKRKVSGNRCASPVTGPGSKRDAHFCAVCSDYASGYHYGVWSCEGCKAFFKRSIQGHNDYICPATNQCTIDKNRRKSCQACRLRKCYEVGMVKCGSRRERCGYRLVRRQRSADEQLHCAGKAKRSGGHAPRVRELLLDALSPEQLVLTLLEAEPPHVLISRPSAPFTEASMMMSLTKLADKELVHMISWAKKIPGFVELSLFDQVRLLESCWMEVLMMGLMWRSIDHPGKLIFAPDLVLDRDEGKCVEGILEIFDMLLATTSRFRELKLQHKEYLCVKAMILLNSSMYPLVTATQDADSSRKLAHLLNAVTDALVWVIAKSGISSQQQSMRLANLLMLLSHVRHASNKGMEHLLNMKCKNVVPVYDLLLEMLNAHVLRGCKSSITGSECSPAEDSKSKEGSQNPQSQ
UniProt P33261, whole entry, looked up: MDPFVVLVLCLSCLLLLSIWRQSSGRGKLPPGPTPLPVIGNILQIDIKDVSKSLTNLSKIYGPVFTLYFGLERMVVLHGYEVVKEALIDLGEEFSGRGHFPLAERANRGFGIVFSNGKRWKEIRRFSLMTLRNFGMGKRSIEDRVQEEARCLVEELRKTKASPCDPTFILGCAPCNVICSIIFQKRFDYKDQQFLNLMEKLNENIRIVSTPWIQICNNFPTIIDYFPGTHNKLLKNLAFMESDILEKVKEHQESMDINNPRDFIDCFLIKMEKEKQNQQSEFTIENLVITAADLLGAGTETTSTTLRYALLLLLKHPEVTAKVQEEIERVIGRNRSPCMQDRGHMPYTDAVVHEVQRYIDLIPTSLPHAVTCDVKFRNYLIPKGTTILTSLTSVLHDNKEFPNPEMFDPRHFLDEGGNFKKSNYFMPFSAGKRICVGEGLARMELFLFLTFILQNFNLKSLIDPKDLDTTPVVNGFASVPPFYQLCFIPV
UniProt P05177, whole entry, looked up: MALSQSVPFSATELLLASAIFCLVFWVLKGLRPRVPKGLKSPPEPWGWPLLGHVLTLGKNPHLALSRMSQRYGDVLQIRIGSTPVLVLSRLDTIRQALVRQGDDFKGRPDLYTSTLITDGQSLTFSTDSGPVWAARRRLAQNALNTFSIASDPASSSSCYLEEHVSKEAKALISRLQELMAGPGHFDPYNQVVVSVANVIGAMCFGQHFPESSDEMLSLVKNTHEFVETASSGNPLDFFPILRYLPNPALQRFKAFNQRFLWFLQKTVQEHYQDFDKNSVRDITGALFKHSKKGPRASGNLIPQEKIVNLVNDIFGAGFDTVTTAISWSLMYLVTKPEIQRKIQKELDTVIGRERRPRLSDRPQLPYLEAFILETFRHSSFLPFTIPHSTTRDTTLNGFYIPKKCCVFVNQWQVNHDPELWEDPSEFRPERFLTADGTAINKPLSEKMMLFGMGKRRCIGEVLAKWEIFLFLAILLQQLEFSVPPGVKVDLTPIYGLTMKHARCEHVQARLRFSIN
UniProt P04150: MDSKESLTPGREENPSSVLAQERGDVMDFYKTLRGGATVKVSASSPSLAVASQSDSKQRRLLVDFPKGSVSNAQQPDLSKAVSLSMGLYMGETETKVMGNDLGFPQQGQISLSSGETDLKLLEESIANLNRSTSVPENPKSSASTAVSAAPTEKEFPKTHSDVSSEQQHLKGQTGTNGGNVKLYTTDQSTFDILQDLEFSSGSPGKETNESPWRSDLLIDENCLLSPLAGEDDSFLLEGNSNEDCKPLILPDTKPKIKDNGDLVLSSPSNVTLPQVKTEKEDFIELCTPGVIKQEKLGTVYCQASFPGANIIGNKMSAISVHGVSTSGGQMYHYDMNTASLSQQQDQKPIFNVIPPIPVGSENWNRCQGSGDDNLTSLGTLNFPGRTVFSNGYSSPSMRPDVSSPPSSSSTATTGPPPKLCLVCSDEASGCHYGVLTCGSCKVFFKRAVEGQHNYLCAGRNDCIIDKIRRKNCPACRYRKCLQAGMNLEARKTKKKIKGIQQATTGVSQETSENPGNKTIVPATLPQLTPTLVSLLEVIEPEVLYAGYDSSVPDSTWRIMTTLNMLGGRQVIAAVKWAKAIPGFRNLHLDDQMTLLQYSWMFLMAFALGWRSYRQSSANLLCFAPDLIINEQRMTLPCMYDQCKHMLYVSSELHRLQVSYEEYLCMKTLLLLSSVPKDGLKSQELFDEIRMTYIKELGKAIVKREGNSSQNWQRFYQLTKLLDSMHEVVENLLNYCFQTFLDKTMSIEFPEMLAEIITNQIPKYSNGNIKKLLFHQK
UniProt Q03181: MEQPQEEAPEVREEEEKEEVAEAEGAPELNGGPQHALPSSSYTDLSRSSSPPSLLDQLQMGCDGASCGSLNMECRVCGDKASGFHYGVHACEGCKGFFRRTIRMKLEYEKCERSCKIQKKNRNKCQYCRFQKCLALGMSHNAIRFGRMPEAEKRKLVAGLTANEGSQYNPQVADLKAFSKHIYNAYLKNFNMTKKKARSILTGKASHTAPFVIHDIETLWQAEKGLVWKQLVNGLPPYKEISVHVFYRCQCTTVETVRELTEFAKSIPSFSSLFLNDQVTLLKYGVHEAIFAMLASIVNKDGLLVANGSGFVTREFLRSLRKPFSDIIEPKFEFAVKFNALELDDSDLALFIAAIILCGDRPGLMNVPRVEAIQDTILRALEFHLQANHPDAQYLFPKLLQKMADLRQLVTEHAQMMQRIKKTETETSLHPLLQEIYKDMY

Columns and labels:
[1] = qHTS assay for small molecule agonists of the p53 signaling pathway (AID 651631; calls by dose curve; further: potency means the concentration at half of the fitted maximal effect; nearly all actives have a fitted effect of over 15% in size); details: HCT-116 p53RE-bla reporter, beta-lactamase FRET ratio, 16 h; activation: at 73.3 µM (top of the series)
Method in brief: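 Readout was fluorescence from the LiveBLAzer FRET substrate, applied for 2 h at room temperature after 16 h compound exposure at 37 °C. Cells were the p53RE-bla HCT-116 line, with beta-lactamase driven by p53 response elements.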

[2] = qHTS assay for identifying genotoxic compounds that show differential cytotoxicity against isogenic chicken DT40 cell lines with known DNA damage response pathways - wild type cell line (AID 743012); details: DT40 wild type chicken cells viability, CellTiter-Glo, 40 h; further: potency means the concentration at half of the fitted maximal effect; nearly all actives have a fitted effect of over 60% in size
Method in brief: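 First, wild type DT40 cells were plated at 300 per well and equilibrated about 0.5 h at 37 C/5% CO2. Next, compounds in DMSO were added and exposure lasted 40 h. Finally, CellTiter-Glo was added for 30 min at room temperature and luminescence recorded.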

[3] = qHTS assay to identify small molecule antagonists of the estrogen receptor alpha (ER-alpha) signaling pathway using the BG1 cell line - cell viability counter screen (AID 743081); details: BG1Luc4E2 viability, CellTiter-Fluor, 22 h;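 further: compound given together with 17beta-estradiol as the ER stimulus; potency means the concentration at half of the fitted maximal effect; nearly all actives have a fitted effect of over 45% in size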
[4] = qHTS assay for small molecule activators of the heat shock response signaling pathway (AID 743210; active means well fitted activation curve with a large enough effect in the signal ratio in the repeat runs, with a control signal flat, not every such curve was filed as active; inconclusive means weak or mixed curves; the % refers to the signal ratio; further: potency means the concentration at half of the fitted maximal effect); details: HeLa HSE-bla reporter, beta-lactamase ratio, 5 h
Method in brief: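 HSE-bla HeLa cells (beta-lactamase reporter under heat shock response elements) were exposed to compounds for 5 h at 37 C, then loaded with LiveBLAzer B/G FRET substrate for 2.5 h at room temperature before fluorescence reading.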

[5] = qHTS assay to identify small molecule agonists of the AP-1 signaling pathway (AID 1159526; calls by dose curve; further: potency means the concentration at half of the fitted maximal effect); details: ME-180 (cervical carcinoma) AP-1-bla reporter, beta-lactamase FRET ratio, 5 h; activation: at 76.8 µM (top of the series)
[6] = qHTS assay to identify small molecule agonists of the retinoic acid receptor (RAR) signaling pathway (AID 1159553); details: C3RL4 RARE luciferase reporter, agonist, 6 h; activation: at 73.3 µM (top of the series); further: potency means the concentration at half of the fitted maximal effect
Method in brief: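 Reporter readout comes from luciferase under RARE control in C3RL4 cells; compound exposure lasts 6 hr at 37 C in 5% CO2, and luminescence is recorded following a 30 min room-temperature incubation with reagent.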

[7] = qHTS assay to identify small molecule agonists of the hypoxia (HIF-1) signaling pathway (AID 1224846; active means well fitted activation curve with a large enough effect in the signal ratio in the repeat runs, not every such curve was filed as active; inconclusive means weak or mixed curves; the % refers to the signal ratio; further: potency means the concentration at half of the fitted maximal effect); details: HRE-bla ME-180 cells, beta-lactamase ratio, 17 h
Method in brief: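 A low-serum medium (0.5% dialyzed FBS) holding 2,000 HRE-bla ME-180 cells per well is preincubated for 5 hrs, dosed with compounds by pintool, and kept a further 17 hrs at 37C, 5% CO2 before CCF4-AM FRET detection of beta-lactamase.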

[8] = molecular target: Estrogen receptor beta (Homo sapiens) (UniProt Q92731); experiment: qHTS assay to identify small molecule antagonists of the estrogen receptor beta (ER-beta) signaling pathway (AID 1259378; active means well fitted inhibition curve with a large enough effect in the signal ratio in the repeat runs, not every such curve was filed as active; inconclusive means weak or mixed curves, or effect the other way; inactive means no such curve, though single readings can be large or run the other way; the % refers to the signal ratio; further: on the % scale 0 is the no-effect control and ±100 the full control effect); details: ER-beta-UAS-bla HEK293T, beta-lactamase FRET ratio, 16 h; at 92.4 µM (top of the series)
Method in brief: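 ER-beta-UAS-bla HEK293T (GripTite) cells in 2% charcoal-stripped FBS medium were preincubated 6 hr at 37C, dosed with compound, then stimulated with 1 nM E2 (final) for 16 hr; beta-lactamase reporter read by B/G FRET fluorescence after 2 hr substrate loading.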

[9] = qHTS assay to identify small molecule antagonists of the progesterone receptor (PR) signaling pathway - cell viability counter screen (AID 1346798); details: PR-UAS-bla HEK293T viability, CellTiter-Glo luminescence, 16 h; further: potency means the concentration at half of the fitted maximal effect; nearly all actives have a fitted effect of over 50% in size
Method in brief: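 Cytotoxicity read as CellTiter-Glo luminescence (30 min, room temperature) in the same wells as the beta-lactamase readout. HEK293T PR-UAS-bla cells in charcoal-stripped 2% FBS received compound and R5020, then 16 h at 37C, 5% CO2.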

[10] = qHTS assay to identify small molecule agonists of the progesterone receptor (PR) signaling pathway - cell viability counter screen (AID 1346799; calls by dose curve; further: potency means the concentration at half of the fitted maximal effect; nearly all actives have a fitted effect of over 45% in size); details: PR-UAS-bla HEK293T viability, CellTiter-Glo luminescence, 16 h
Method in brief: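 Cytotoxicity measured by CellTiter-Glo luminescence (30 min, RT) in the same wells as the PR beta-lactamase agonist read. Those HEK293T cells had 16 h compound treatment at 37 C in 2% charcoal-stripped FBS medium.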

[11] = molecular target: Cytochrome P450 2C19 (Homo sapiens) (UniProt P33261); experiment: Cytochrome P450 Family 2 Subfamily C Member 19 (CYP2C19) small molecule antagonists: luciferase reporter qHTS assay (AID 1671197); details: P450-Glo CYP2C19 enzyme, luciferin luminescence, 1 h; further: potency means the concentration at half of the fitted maximal effect; nearly all actives have a fitted effect of over 65% in size
Method in brief: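 CYP2C19 P450-Glo, 1536-well qHTS. Cpd + enzyme/proluciferin substrate 10 min RT; + NADPH regen, 37C 1 h; stop with luciferin detection reagent, 20 min RT, luminescence (RLU). Pos ctrl ketoconazole.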

[12] = molecular target: Cytochrome P450 1A2 (Homo sapiens) (UniProt P05177); experiment: Cytochrome P450 Family 1 Subfamily A Member 2 (CYP1A2) small molecule antagonists: luciferase reporter qHTS assay (AID 1671199); details: P450-Glo CYP1A2 enzyme, luciferin luminescence, 1 h; further: potency means the concentration at half of the fitted maximal effect; nearly all actives have a fitted effect of over 50% in size
[13] = molecular target: Glucocorticoid receptor (Homo sapiens) (UniProt P04150); experiment: qHTS assay to identify small molecule antagonists of the glucocorticoid receptor (GR) signaling pathway (AID 720692; active means well fitted inhibition curve with a large enough effect in the signal ratio in the repeat runs, not every such curve was filed as active; inconclusive means weak or mixed curves, or effect the other way; inactive means no such curve, though single readings can be large or run the other way; the % refers to the signal ratio; further: potency means the concentration at half of the fitted maximal effect); details: GR-bla HeLa, beta-lactamase FRET ratio, dexamethasone-stimulated, 18 h; activity change, negative = inhibition: at 58.5 µM (top of the series)
[14] = qHTS assay for small molecule agonists of the antioxidant response element (ARE) signaling pathway - cell viability counter screen (AID 743203; calls by dose curve; further: potency means the concentration at half of the fitted maximal effect; nearly all actives have a fitted effect of over 55% in size); details: ARE-bla HepG2 viability, CellTiter-Glo luminescence, 16 h
Method in brief: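 Following 16 hrs of compound treatment at 37C, HepG2 cells with an ARE-controlled beta-lactamase gene were lysed with CellTiter-Glo. Luminescence was read after 30 min at room temperature.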

[15] = molecular target: Peroxisome proliferator-activated receptor delta (Homo sapiens) (UniProt Q03181); experiment: qHTS assay to identify small molecule antagonists of the peroxisome proliferator-activated receptor delta (PPARd) signaling pathway (AID 743215; active means well fitted inhibition curve with a large enough effect in the signal ratio in the repeat runs, not every such curve was filed as active; inconclusive means weak or mixed curves, or effect the other way; inactive means no such curve, though single readings can be large or run the other way; the % refers to the signal ratio;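 further: cells stimulated with agonist L165041 at 300 nM final during compound exposure; on the % scale 0 is the no-effect control and ±100 the full control effect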); details: HEK293H PPARd-UAS-bla, beta-lactamase FRET ratio, antagonist, 17 h; ratio activity, negative = inhibition: at 62 µM (top of the series)
Method in brief: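 HEK293H UAS-bla, PPARd; agonist L165041 300 nM final with cpd in DMSO; 37 C 17 h; FRET substrate, RT 2 h; fluorescence intensity.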

[16] = molecular target: Estrogen receptor beta (Homo sapiens) (UniProt Q92731); experiment: qHTS assay to identify small molecule agonists of the estrogen receptor beta (ER-beta) signaling pathway (AID 1259377; active means well fitted activation curve with a large enough effect in the signal ratio in the repeat runs, not every such curve was filed as active; inconclusive means weak or mixed curves, or effect the other way; the % refers to the signal ratio; further: on the % scale 0 is the no-effect control and ±100 the full control effect); details: ER-beta-UAS-bla HEK293T, beta-lactamase FRET ratio, 16 h; activation: at 92.4 µM (top of the series)
[17] = qHTS assay to identify small molecule agonists of the estrogen receptor beta (ER-beta) signaling pathway - cell viability counter screen (AID 1259380); details: ER-beta-bla HEK293T viability, CellTiter-Glo luminescence, 16 h; further: potency means the concentration at half of the fitted maximal effect; nearly all actives have a fitted effect of over 30% in size
Method in brief: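 CellTiter-Glo read, 30 min RT, same wells as bla assay; cells ER-beta-UAS-bla HEK293T; 16 hr compound, 37C; medium 2% charcoal-stripped FBS.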

[18] = Caspase-3/7 induction in CHO-K1 cells by small molecules, qHTS cell viability counter screen (AID 1346979); details: CellTiter-Fluor fluorescence, 17 h; further: potency means the concentration at half of the fitted maximal effect; nearly all actives have a fitted effect of over 35% in size
Method in brief: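 Cytotoxicity counter screen: CellTiter-Fluor added to compound-treated wild-type CHO-K1 cells at 16 h (37C, 5% CO2), fluorescence measured 1 h later; same wells as caspase-3/7 measurement.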

CCNC(C)Cc1ccc2c(c1)OCO2 (centres undefined)
inconclusive: Potency [1] 0.0083 µM | Potency [2] 6.56 µM | Potency [3] 29.3 µM | Potency [4] 82.6 µM | Potency [5] 74.2 µM | Potency [6] 82.6 µM | Potency [7] 2.35 µM | activity, negative = inhibition [8] 28% | Potency [9] 73.6 µM | Potency [10] 14.7 µM | Potency [11] 108 µM | Potency [12] 48.1 µM

O=P(Cl)(Cl)c1ccccc1
inconclusive: Potency [1] 68.6 µM | Potency [13] 54.9 µM | Potency [14] 43.3 µM | ratio activity, negative = inhibition [15] 4.2% | activation [16] 14.1% | Potency [17] 6.86 µM | Potency [18] 54.5 µM
